Patent US12528818B2, “Compositions and methods for inhibition of RAS” (Leidos Biomedical Research, Inc., priority 2021, dated 2026)

Columns and labels:
[1] = target: Avi-KRAS G12C (1-169) GppNHp/RAF1 RBD-3xFLAG (52-151) (Homo sapiens, UniProt P01116, G12C); assay: biochemical; details: Raf1-GppNHp-KRAS G12C disruption, Raf1 RBD-KRAS G12C-GppNHp disruption assay IC50
[2] = target: GppNHp-loaded KRAS4b (amino acids 1-169) G12C/C118S protein (Homo sapiens, UniProt P01116, C118S/G12C); assay: Covalent cysteine 12 modification by MALDI-TOF MS, GppNHp-loaded KRAS G12C; type: biochemical; details: 15 minutes reaction time, compound 95 or later using 1 μM proteins
[3] = target: GDP-loaded KRAS4b (amino acids 1-169) G12C/C118S protein (Homo sapiens, UniProt P01116, C118S/G12C); assay: Covalent cysteine 12 modification by MALDI-TOF MS, GDP-loaded KRAS G12C; type: biochemical; details: 15 minutes reaction time, compound 95 or later using 1 μM proteins
[4] = target: T1, GTP-loaded KRAS4b (amino acids 1-169) G12C/C118S protein (Homo sapiens, UniProt P01116, C118S/G12C); assay: Covalent cysteine 12 modification by MALDI-TOF MS, GTP-loaded KRAS G12C; type: biochemical; details: 15 minutes reaction time, compound 95 or later using 1 μM proteins
T1 construct: KRAS4b (amino acids 1-169) G12C/C118S protein; made in house

SMILES | IC50 [1] [nM] | GppNHp-KRAS G12C percent of modification [2] | GDP-KRAS G12C percent of modification [3] | GTP-KRAS G12C percent of modification [4]
C=CC(=O)N1CC[C@@H](N(C)c2nc(OC[C@@]34CCCN3C[C@H](F)C4)nc3c(Cl)c(-c4ccc(F)c5sc(N)nc45)c(C(F)(F)F)cc23)C1 (single isomer, unassigned) [Compound 302] | < 500 | A (percent of modification ≥70%) | A (percent of modification ≥70%) | A (percent of modification ≥70%)
C=CC(=O)N1C[C@H](N(C)c2nc(OC[C@@]34CCCN3C[C@H](F)C4)nc3c(F)c(-c4ccc(F)c5sc(N)nc45)c(C(F)(F)F)cc23)C[C@H]1C [Compound 274] | < 500 | A (percent of modification ≥70%) | A (percent of modification ≥70%) | A (percent of modification ≥70%)
C=CC(=O)N1CCN(c2nc(OC[C@@]34CCCN3C[C@H](F)C4)nc3c(F)c(-c4ccc(F)c5sc(N)c(C#N)c45)c(C(F)(F)F)cc23)CC1 [Compound 345] | < 500 | A (percent of modification ≥70%) | A (percent of modification ≥70%) | A (percent of modification ≥70%)
C=CC(=O)N1C[C@H](C)N(c2nc(N3CC(N4CC5(CC5)C4)C3)nc3c(F)c(-c4ccc(F)c5sc(N)c(C#N)c45)c(C(F)(F)F)cc23)C[C@H]1C [Compound 338, 4-(2-(3-(5-azaspiro[2.3]hexan-5-yl)azetidin-1-yl)-4-((2S,5R)-4-acryloyl-2,5-dimethylpiperazin-1-yl)-8-fluoro-6-(trifluoromethyl)quinazolin-7-yl)-2-amino-7-fluorobenzo[b]thiophene-3-carbonitrile] | < 500 | C (10%≤percent of modification <50%) | C (10%≤percent of modification <50%) | D (percent of modification <10%)
C=CC(=O)N1C[C@@H](F)[C@@H](N(C)c2nc(OC[C@@H]3CC4(CC4)CN3C)nc3cc(-c4ccc(F)c5sc(N)c(C#N)c45)c(C(F)(F)F)cc23)C1 [Compound 357] | < 500 | A (percent of modification ≥70%) | A (percent of modification ≥70%) | A (percent of modification ≥70%)
C=CC(=O)N1CC[C@@H](N(C)c2nc(OC[C@@]34CCCN3C[C@H](F)C4)nc3c(F)c(-c4ccc(F)c5sc(N)c(C#N)c45)c(C(F)(F)F)cc23)[C@H]1COC [Compound 401] | < 500 | C (10%≤percent of modification <50%) | A (percent of modification ≥70%) | C (10%≤percent of modification <50%)
C=CC(=O)N1C[C@@H](F)[C@@H](N(CC)c2nc(OCC34CCCN3CCC4)nc3cc(-c4ccc(F)c5sc(N)c(C#N)c45)c(C(F)(F)F)cc23)C1 [Compound 376] | < 500 | A (percent of modification ≥70%) | A (percent of modification ≥70%) | A (percent of modification ≥70%)
C=CC(=O)N1C[C@H](C)N(c2nc(OC[C@@]34CCCN3C[C@H](F)C4)nc3c(F)c(-c4ccc(F)c5sc(N)nc45)c(C(F)(F)F)cc23)C[C@H]1C (atropisomer, axis not shown) [Compound 267] | < 500 | A (percent of modification ≥70%) | A (percent of modification ≥70%) | B (50≤percent of modification <70%)
C=CC(=O)N1C[C@@H](F)[C@@H](N(C)c2nc(OC[C@@]34CCCN3C[C@H](F)C4)nc3c(F)c(-c4ccc(F)c5sc(N)c(C#N)c45)ccc23)C1 [Compound 359] | < 500 | A (percent of modification ≥70%) | A (percent of modification ≥70%) | A (percent of modification ≥70%)
C=CC(=O)N1C[C@@H](F)[C@@H](N(CC)c2nc(OC[C@@]34CCCN3C[C@H](F)C4)nc3c(C#N)c(-c4ccc(F)c5sc(N)c(C#N)c45)c(Cl)cc23)C1 [Compound 380] | < 500 | B (50≤percent of modification <70%) | C (10%≤percent of modification <50%) | C (10%≤percent of modification <50%)
C=CC(=O)N1C[C@H](C)N(c2nc(OC[C@@]34CCCN3C[C@H](F)C4)nc3c(Cl)c(-c4ccc(F)c5sc(N)c(C#N)c45)c(C#N)cc23)C[C@H]1C [Compound 422] | < 500 | B (50≤percent of modification <70%) | A (percent of modification ≥70%) | C (10%≤percent of modification <50%)
C=CC(=O)N1C[C@@H](F)[C@@H](N(C)c2nc(OCC34CCCN3CCC4)nc3c(F)c(-c4ccc(F)c5sc(N)c(C#N)c45)c(C(F)(F)F)cc23)C1 [Compound 374] | < 500 | A (percent of modification ≥70%) | A (percent of modification ≥70%) | A (percent of modification ≥70%)
C=CC(=O)N1CC[C@@H](N(C)c2nc(OC[C@@]34CCCN3C[C@H](F)C4)nc3c(F)c(-c4ccc(F)c5sc(N)c(C#N)c45)c(C(F)(F)F)cc23)[C@H]1C (single isomer, unassigned) [Compound 435] | > 20000 | D (percent of modification <10%) | D (percent of modification <10%) | D (percent of modification <10%)
C=CC(=O)N1C[C@H](C)N(c2nc(OC[C@@]34CCCN3C[C@H](F)C4)nc3cc(-c4c(F)cc(F)c5sc(N)nc45)c(C(F)(F)F)cc23)C[C@H]1C [Compound 298, 1-((2R,5S)-4-(7-(2-amino-5,7-difluorobenzo[d]thiazol-4-yl)-2-(((2R,7aS)-2-fluorotetrahydro-1H-pyrrolizin-7a(5H)-yl)methoxy)-6-(trifluoromethyl)quinazolin-4-yl)-2,5-dimethylpiperazin-1-yl)prop-2-en-1-one] | < 500 | B (50≤percent of modification <70%) | A (percent of modification ≥70%) | C (10%≤percent of modification <50%)
